Assays:
Assay type in all cases: cell-based
EGFR = EGFR tyrosine phosphorylation; conditions: increase caused by PACAP; 30 min pretreatment
Calu-3 cells = test: Clonogenic assay, Calu-3 cells
NSCLC cells = test: Proliferation of NSCLC cells
HER2 = HER2 tyrosine phosphorylation; conditions: increase caused by PACAP; 30 min pretreatment

Row | Molecule | effect on PACAP-induced EGFR tyrosine phosphorylation (EGFR) | effect on PACAP-27-induced increase in colony number (Calu-3 cells; 100 nM PACAP-27) | reduction of colony number (Calu-3 cells; basal colony number, no PACAP, mAb3481 0.1 μg/ml, PACAP(6–38) 5 μM, gefitinib 1 μM, trastuzumab 0.1 μg/ml, 2 weeks) [%] | inhibition of Calu-3 proliferation, clonogenic (Calu-3 cells; clonogenic assay, basal or stimulated growth) | proliferation of NSCLC cells (NSCLC cells) | effect on PACAP-induced HER2 tyrosine phosphorylation (HER2)
1 | COc1cc2ncnc(Nc3ccc(F)c(Cl)c3)c2cc1OCCCN1CCOCC1 [gefitinib] | blocked |  |  |  |  | 
2 | trastuzumab: a monoclonal antibody (mAb) for HER2 |  | impaired | 27 | inhibited growth | inhibited proliferation | inhibited

— paper PMC8844836 (Journal of molecular neuroscience : MN, 2020)
